scFv variants of Ab-95 (light chain) against a SARS-CoV-2 spike peptide

From the AlphaSeq antibody data of Engelhart et al. 2022 (doi:10.1038/s41597-022-01779-4), copy in the FLAb collection.

The target is the same throughout: PDVDLGDISGINAS, from the HR2 region of SARS-CoV-2 spike.

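The starting antibody came from a phage panning campaign against this peptide. Variants in AAYL52 differ from the parent at up to three CDR positions; double and triple changes were sampled at random. Affinity was read by AlphaSeq, a pooled yeast mating assay with surface-displayed partners. The frequency of each diploid, read from paired DNA barcodes, reflects how well the two displayed proteins bind. Scores were corrected for input abundance and mapped to Kd with protein pairs of known affinity run in the same pool. There are three technical replicates.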

Ab-95 is the parent antibody, in scFv form: VH, then the linker GGGGSGGGGSGGGGS, then VL. The heavy chain is unchanged in all variants.
VH: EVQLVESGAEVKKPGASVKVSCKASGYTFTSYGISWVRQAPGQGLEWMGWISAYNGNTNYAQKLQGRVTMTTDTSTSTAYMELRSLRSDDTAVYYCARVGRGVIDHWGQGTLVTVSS
VL: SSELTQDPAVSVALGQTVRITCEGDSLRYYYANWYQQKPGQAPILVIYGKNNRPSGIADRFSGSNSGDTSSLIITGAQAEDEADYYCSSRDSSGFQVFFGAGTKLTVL

Changes read parent residue, position, new residue, counted from the first residue of the VL shown. Every variant below is changed at Q96 of the VL (sequential numbering). Kd is apparent (estimated from mating counts) and averaged on the log scale over replicates with a signal. Smaller is tighter. "no signal" means that the variant was in the library but no mating with the target was seen in any replicate; the authors take this as a sign of poor binding, and no number exists. In this assay the parent's reference entry averaged 200 nM; its copy inside this library read 180 nM. Nonspecific signal, from three strains lacking the peptide, appeared in 28% of pairings of library AAYL52, centred on 8.2 µM (5% of these signals below 800 nM); values are not corrected for it.

The variant G49P+Q96I gave 10 µM (1 of 3 replicates). With E23Y+N33F+Q96I the result was 19 µM (2 of 3 replicates). The variant L27I+Q96L gave 7.8 µM (3 of 3 replicates). With S93M+G94S+Q96E the result was 5.0 µM (3 of 3 replicates). With D25F+K50R+Q96M the result was 4.5 µM (3 of 3 replicates). With Y30P+N52L+Q96W the result was 1.0 µM (3 of 3 replicates).

With N52P+Q96M the result was 10 µM (2 of 3 replicates). The variant N51W+P54A+Q96M showed 8.5 µM (3 of 3 replicates). The variant A32S+Q96M+F98N showed 160 nM (1 of 3 replicates). The variant Y30T+Y31G+Q96L showed 18 nM (3 of 3 replicates). The variant Y31M+S89H+Q96A gave 190 nM (3 of 3 replicates). The variant Y29D+Q96A+V97N showed 120 nM (3 of 3 replicates).

The variant Y31T+S55Q+Q96N showed 160 nM (3 of 3 replicates). For E23I+G49I+Q96F, the assay gave 19 µM (2 of 3 replicates). The variant K50A+Q96T gave 1.3 µM (3 of 3 replicates). The variant D91N+G94Y+Q96P showed 1.1 µM (2 of 3 replicates). The variant S93A+Q96N gave 200 nM (3 of 3 replicates). The variant Y29R+D91N+Q96W showed 5.4 µM (3 of 3 replicates).

With Y29S+Q96L the result was 370 nM (2 of 3 replicates). With G94N+Q96T the result was 310 nM (1 of 3 replicates). The variant Y30R+G49C+Q96V showed no signal (0 of 3 replicates). With A32R+N52A+Q96R the result was 2.4 µM (3 of 3 replicates). The variant E23Y+G24R+Q96H showed 400 nM (3 of 3 replicates). For G24M+R90T+Q96H, the assay gave 2.7 µM (1 of 3 replicates).

The variant Y30V+S93P+Q96A gave 240 nM (3 of 3 replicates). With S55G+R90G+Q96F the result was 18 µM (2 of 3 replicates). The variant K50E+Q96S showed 110 nM (3 of 3 replicates). The variant D25K+S55W+Q96A gave 420 nM (3 of 3 replicates). For A32Q+G94C+Q96N, the assay gave 5.8 µM (2 of 3 replicates). The variant S88F+Q96M gave 570 nM (2 of 3 replicates).

With Y31W+P54M+Q96W the result was 3.5 µM (3 of 3 replicates). The variant L27I+P54R+Q96R gave 98 µM (1 of 3 replicates).

The 3 strongest on average among those seen in every replicate, once more:

changes	apparent Kd	seen in
Y30T+Y31G+Q96L	18 nM	3/3
K50E+Q96S	110 nM	3/3
Y29D+Q96A+V97N	120 nM	3/3